The subject of one experiment is MDA-MB-231 cells. The experiment is described as follows: Transwell migration assay. It counts as cell-based. Particulars: Homo sapiens, MDA-MB-231, 24 h, read-out: inhibition of migration.
In a further experiment the test system is 4T1 cells. Description: Transwell migration assay. It counts as cell-based, murine. Particulars: Mus musculus, 4T1, 24 h, read-out: inhibition of migration.

Take `CCc1cnn2c(NCc3ccc[n+]([O-])c3)cc(N3CCCC[C@H]3CCO)nc12` [Complex 20, dinaciclib]: the figures for the inhibition at 0.3 µM in the experiment with MDA-MB-231 cells and in the experiment with 4T1 cells were 64% and 58%, respectively.
